# “And” between values parts separate entries of the source, which are not always exact repeats. Equal values may be shown once. This is a selection; strong and weak results do not stand in their true shares. The source made the active and inactive calls.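 The calls were made as follows: active = inhibition over about 50% at 20 µM in the single-dose screen (limit read from the data); inactive = the rest.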
# Protein sequences, listed by entry. Tags and fused reporters are not part of them.
# UniProt Q01196, whole entry, looked up: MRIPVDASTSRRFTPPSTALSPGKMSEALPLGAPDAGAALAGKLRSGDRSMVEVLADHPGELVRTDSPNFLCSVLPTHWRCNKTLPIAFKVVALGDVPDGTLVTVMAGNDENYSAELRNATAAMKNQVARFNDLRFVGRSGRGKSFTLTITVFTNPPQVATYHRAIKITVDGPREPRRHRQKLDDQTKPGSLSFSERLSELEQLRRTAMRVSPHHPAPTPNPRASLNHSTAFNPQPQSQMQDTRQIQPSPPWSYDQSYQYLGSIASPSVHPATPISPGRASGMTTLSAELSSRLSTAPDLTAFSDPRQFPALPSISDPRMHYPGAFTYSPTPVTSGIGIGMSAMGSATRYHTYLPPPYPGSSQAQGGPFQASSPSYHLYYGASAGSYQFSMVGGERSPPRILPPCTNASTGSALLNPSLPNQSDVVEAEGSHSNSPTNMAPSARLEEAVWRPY
# UniProt Q13951, whole entry, looked up: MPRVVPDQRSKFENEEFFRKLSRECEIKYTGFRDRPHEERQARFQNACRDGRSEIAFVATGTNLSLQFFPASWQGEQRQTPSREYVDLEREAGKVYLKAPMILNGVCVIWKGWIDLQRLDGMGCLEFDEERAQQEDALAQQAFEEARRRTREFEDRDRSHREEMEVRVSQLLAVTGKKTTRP
# Biological target: Runt-related transcription factor 1 (Homo sapiens) + Core-binding factor subunit beta (Homo sapiens) (UniProt Q01196+Q13951)
# Assay: inhibitors of RUNX1 Runt–CBFb binding, primary screen, biochemical, FRET, Cerulean-Runt, Venus-CBFb, uHTS (AID 1496);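 also: 0% = DMSO wells and 100% = excess unlabeled CBFb competitor control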
# Settings: Cerulean-Runt/Venus-CBFb FRET ratio 530/480, 1 h; at 20 µM; stronger effect = higher value
# Outline: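 Measured by: fluorescence energy transfer, 422 nm excitation, 530/480 nm emission; test system: Cerulean-tagged RUNX1 Runt domain (FRET donor) fusion protein; buffer or medium: Tris pH 7.5 buffer with BSA; compound: one dose, 20 µM compound, 1% DMSO; times: two 1 h room-temperature incubations shielded from light; benchmarks: unlabeled CBFb 5 µM, positive control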
row,SMILES,inhibition
1,Cc1cc(SC(NC(=O)c2ccc(F)cc2)C(Cl)(Cl)Cl)ncn1 (stereo unspecified),active: 50.6%
2,CCOP(=O)(Nc1ccccc1)OCC,inactive: -2% and inactive: 1.7%
3,Cc1ccc(NP(=O)(Oc2ccccc2F)Oc2ccccc2F)nc1,inactive: 1.4%
4,O=P(Nc1nc2ccc(Cl)cc2s1)(c1ccccc1)c1ccccc1,inactive: -1.2%
5,CC(=O)Nc1ccc([As](=O)(O)O)cc1,inactive: 0.2%
6,O=C(O)c1ccccc1[As](=O)(O)O,inactive: 0.4%
7,Nc1cccc2ccc([As](=O)(O)O)cc12,inactive: 35.3%
8,CCN(N=Nc1nonc1N)c1nonc1N,inactive: 2.7%
9,CN1CCCC(OC(=O)C(c2ccccc2)c2ccccc2)C1 (stereo unspecified),inactive: 1.3%
10,Clc1ccc(Cl)c(NC2=NCC(CBr)S2)c1 (stereo unspecified),inactive: 3.2%
11,COc1ccccc1OP(=O)(Nc1ccc(C)cn1)Oc1ccccc1OC,inactive: -1.4%
12,Cc1ccc(OP(=O)(Nc2nccs2)Oc2ccc(C)cc2)cc1,inactive: -1%
13,Cc1ccc(N/C(=N/P(=O)(N2CCOCC2)N2CCOCC2)N2CCOCC2)cc1,inactive: -0.2%
14,NC(=O)c1cc([N+](=O)[O-])cc([N+](=O)[O-])c1N,inactive: -1.1%
15,Oc1ccccc1CNc1ccccn1,inactive: -1.9%
16,O=C(NC(Sc1ccncn1)C(Cl)(Cl)Cl)c1ccccc1 (stereo unspecified),inactive: 13.8%
17,Cc1c2non([O-])c-2c(C)[n+](=O)[n+]1[O-],inactive: 12.9%
18,Nc1cc(N)c2nonc2c1[N+](=O)[O-],inactive: -0.1%
19,CC(C)CC(=O)NC(Sc1ccc(Cl)cc1)C(Cl)(Cl)Cl (stereo unspecified),inactive: -0.1%
20,Cc1ccc(NP(=O)(Oc2ccccc2)Oc2ccccc2)nc1,inactive: 0.8%
21,CCc1nc2c(n1)c1c(non1O)c1c2no[n+]1[O-],inactive: -0.9%
22,CC(=O)N1C2C3N(C(C)=O)C1C1N(C(C)=O)C(C(N1C(C)=O)N3C(C)=O)N2C(C)=O,inactive: 0.5%

row,SMILES,inhibition
1,O=[N+]([O-])c1cccc2n[nH]nc12,inactive: 3.6%
2,COc1ccc(C2=NCC(CBr)S2)cc1 (stereo unspecified),inactive: 7.3%
3,CC1CCN(C(=O)Oc2c(Cl)cc(Cl)c3cccnc23)CC1,inactive: -3.3%
4,CC(C)=N/N=C(\N)N[N+](=O)[O-],inactive: 0.9%
5,CN(C)C(=O)OCCc1n(C)cc[n+]1C,inactive: -0.5%
6,CCN(/C(=N/P(=O)(N1CCOCC1)N1CCOCC1)N1CCOCC1)c1ccc(OC)cc1,inactive: 2.9%
7,Nc1ccc([As](=O)(O)c2ccc(N)cc2)cc1,inactive: 1.4%
8,C[N+]1=C2C=CC=CC=C2SC12C([N+](=O)[O-])=CC([N+](=O)[O-])=C[C-]2[N+](=O)[O-] (stereo unspecified),inactive: 31.3%
9,O=C(Nc1cc([As](=O)(O)O)ccc1O)c1ccccc1,inactive: 4.5%
10,O=C(O)CNc1ccc([As](=O)(O)O)cc1,inactive: 0.2%
11,O=[N+]([O-])c1cccc(NC2=NCC(CBr)S2)c1 (stereo unspecified),inactive: -0.7%
12,O=[N+]([O-])c1ncn(CCn2ncnc2[N+](=O)[O-])n1,inactive: 1.4%
13,CC(C)(C)C(=O)NC(Sc1ccncn1)C(Cl)(Cl)Cl (stereo unspecified),inactive: 17.1%
14,O=P(Nc1nc2ccccc2s1)(c1ccccc1)c1ccccc1,inactive: 0.5%
15,C[C@H]1OP(=O)(Oc2ccccc2)[C@H](O)[C@H](O)[C@H]1N=[N+]=[N-] (stereo partly specified),inactive: -1.1%
16,O=P(Nc1ccccn1)(c1ccc(Br)cc1)c1ccc(Br)cc1,inactive: 0.4%
17,O=C(OC1CN2CCC1CC2)c1cccc(Cl)c1 (stereo unspecified),inactive: -1.8%
18,C(Cc1nn[nH]n1)Cc1nn[nH]n1,inactive: -0.3%
19,Nc1ccc([As](=O)(O)c2ccc([N+](=O)[O-])cc2)cc1,inactive: 2.4%
20,O=[As](O)(c1ccccc1)c1ccc(O)cc1,inactive: -0.4%
21,O=[N+]([O-])c1ncn(CCn2cnc([N+](=O)[O-])n2)n1,inactive: -1.6%
22,CC(=O)NC(SC(=S)N(C)C)C(Cl)(Cl)Cl (stereo unspecified),inactive: 4.7%

row,SMILES,inhibition
1,c1nnnn1CCn1cnnn1,inactive: 0.9%
2,O=P(Nc1nccs1)(c1ccccc1)c1ccccc1,inactive: 0.5%
3,CC(C)C(=O)NC(Sc1ccccc1)C(Cl)(Cl)Cl (stereo unspecified),inactive: 0.4%
4,CC(C)(C)C(=O)NC(Sc1ccccc1)C(Cl)(Cl)Cl (stereo unspecified),inactive: 0.3%
5,O=P1(Nc2nc3ccc(Cl)cc3s2)COc2ccccc2O1 (stereo unspecified),inactive: 1.2%
6,CCOc1ccc(C2=NCC(CBr)S2)cc1 (stereo unspecified),inactive: 0.3%
7,CC(=O)Nc1ccc([As](=O)(O)O)c(O)c1,inactive: 1.4%
8,CC(=O)Nc1ccc(Oc2c([N+](=O)[O-])cc([N+](=O)[O-])cc2[N+](=O)[O-])cc1,inactive: 2.3%
9,C[C@H]1OP(=O)(Oc2ccccc2)C[C@@H]2O[C@@H]21 (stereo partly specified),inactive: 1.5%
10,C[C@@H]1C=CCP(=O)(Oc2ccccc2)O1 (stereo partly specified),inactive: 0.3%
11,c1ccc(-c2nn[nH]n2)c(-c2nn[nH]n2)c1,inactive: 1.3%
12,CCOC(=O)NC(Sc1ccccc1)C(Cl)(Cl)Cl (stereo unspecified),inactive: 5.7%
13,Cc1ccc(NP(=O)(Oc2cccc(C)c2)Oc2cccc(C)c2)nc1,inactive: -1.2%
14,O=C(NC1CCS(=O)(=O)C1)NP(=S)(Oc1ccccc1)Oc1ccccc1 (stereo unspecified),inactive: -0.5%
15,CCNC(=S)/N=C(\N)N[N+](=O)[O-],inactive: 1.3%
16,Cc1ccccc1OP(=O)(Nc1ccccn1)Oc1ccccc1C,inactive: -0.2%
17,O=c1c2cc([N+](=O)[O-])ccc2[nH]c2c([N+](=O)[O-])cc([N+](=O)[O-])cc12,inactive: -3.1%
18,CN(C)C(=O)Oc1noc2ccccc12,inactive: 2.3%
19,CCC(=O)N1C2C3N(C(=O)CC)C1C1N(C(=O)CC)C(C(N1C(=O)CC)N3C(=O)CC)N2C(=O)CC,inactive: 0.1%
20,COC(=O)c1cc2c(s1)N=C(c1ccccc1)N(C)P2(=O)N1CCOCC1 (stereo unspecified),inactive: -1.9%
21,Cc1ccc(OP(=O)(Nc2ccccn2)Oc2ccc(C)cc2)cc1,inactive: -2%
22,CC(=O)NC(SC(=S)N(CC(C)C)CC(C)C)C(Cl)(Cl)Cl (stereo unspecified),inactive: 2.5%

# — PubChem BioAssay AID1496 (Sanford-Burnham Center for Chemical Genomics, 2009)
